Literature values as cited in patent US11823773B2, “Nant cancer vaccine strategies” (Nant Holdings IP, LLC, priority 2018, dated 2023).

Test system: metastatic melanoma

Substance: interleukin-2 [IL-2]
- toxicity (in vivo): high toxicities
- responders remaining progression free (of the subjects who responded, median follow-up of 62 months): 28%
- overall ORR (subjects with metastatic melanoma, high-dose IL-2): 16%
